Structures can show the parent of a compound that is named as a salt. Where two headings read alike, the source gives them in different places.
Tests used:
OGFOD1 = OGFOD1 (Homo sapiens, UniProt Q8N543); test: biochemical; conditions: read-out: Fold change versus DMSO control
Experimental: (§1) Cells were harvested by centrifugation, washed once with 1 x PBS buffer (Invitrogen, #14190-094) and cell pellets were frozen in liquid nitrogen and subsequently stored at -80°C.
(§2) Cells were homogenized in a Potter S homogenizer in lysis buffer: 50 mM Tris-HCl, 0.8% NP40, 5% glycerol, 150 mM NaCl, 1.5 mM MgCl2, 25 mM NaF, 1 mM sodium vanadate, 1 mM DTT, pH 7.5. […] The supernatant was transferred again to a fresh 50 ml falcon tube, the protein concentration was determined by a Bradford assay (BioRad) and samples containing 50 mg of protein per aliquot were prepared.

The chains behind the UniProt entries cited, without tags or fusion partners. Where a name states a change or a piece, a line headed by the entry shows the natural chain unless it says otherwise. Residues count along the entry.
UniProt Q8N543: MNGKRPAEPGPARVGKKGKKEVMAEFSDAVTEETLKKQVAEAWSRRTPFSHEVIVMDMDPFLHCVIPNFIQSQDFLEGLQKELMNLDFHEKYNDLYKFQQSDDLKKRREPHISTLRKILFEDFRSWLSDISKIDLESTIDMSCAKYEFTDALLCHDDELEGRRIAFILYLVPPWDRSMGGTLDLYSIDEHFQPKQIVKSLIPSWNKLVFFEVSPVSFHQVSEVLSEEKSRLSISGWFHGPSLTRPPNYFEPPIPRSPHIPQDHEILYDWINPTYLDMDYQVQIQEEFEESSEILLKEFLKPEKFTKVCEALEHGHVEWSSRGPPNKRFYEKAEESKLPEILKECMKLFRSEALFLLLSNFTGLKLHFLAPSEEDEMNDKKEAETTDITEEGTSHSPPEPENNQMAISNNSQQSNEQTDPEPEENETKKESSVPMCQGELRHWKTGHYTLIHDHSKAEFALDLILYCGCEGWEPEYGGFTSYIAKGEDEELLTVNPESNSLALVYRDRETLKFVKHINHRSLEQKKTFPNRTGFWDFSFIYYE
UniProt Q9GZT9: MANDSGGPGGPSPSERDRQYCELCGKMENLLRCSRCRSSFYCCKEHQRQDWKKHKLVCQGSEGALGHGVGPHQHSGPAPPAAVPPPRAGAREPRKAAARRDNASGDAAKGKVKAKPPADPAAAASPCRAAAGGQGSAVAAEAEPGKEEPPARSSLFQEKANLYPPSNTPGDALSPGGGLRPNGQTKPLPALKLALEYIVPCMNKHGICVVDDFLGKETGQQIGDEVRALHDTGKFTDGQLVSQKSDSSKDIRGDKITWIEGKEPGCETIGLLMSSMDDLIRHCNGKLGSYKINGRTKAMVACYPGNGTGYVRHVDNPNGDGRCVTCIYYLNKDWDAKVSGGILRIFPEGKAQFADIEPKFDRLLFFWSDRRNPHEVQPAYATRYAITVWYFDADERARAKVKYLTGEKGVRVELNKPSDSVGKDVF
UniProt Q6P6C2: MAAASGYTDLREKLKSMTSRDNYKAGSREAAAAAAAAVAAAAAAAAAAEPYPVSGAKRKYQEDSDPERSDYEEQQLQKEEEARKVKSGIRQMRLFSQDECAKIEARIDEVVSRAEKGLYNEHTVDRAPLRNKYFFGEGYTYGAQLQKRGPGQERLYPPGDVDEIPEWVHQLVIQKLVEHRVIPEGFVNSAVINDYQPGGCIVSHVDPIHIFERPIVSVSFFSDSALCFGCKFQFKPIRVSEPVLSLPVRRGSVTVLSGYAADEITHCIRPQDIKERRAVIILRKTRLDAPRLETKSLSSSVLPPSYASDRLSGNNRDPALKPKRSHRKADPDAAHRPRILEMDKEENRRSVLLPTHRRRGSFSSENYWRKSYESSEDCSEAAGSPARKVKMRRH
UniProt Q6NS38: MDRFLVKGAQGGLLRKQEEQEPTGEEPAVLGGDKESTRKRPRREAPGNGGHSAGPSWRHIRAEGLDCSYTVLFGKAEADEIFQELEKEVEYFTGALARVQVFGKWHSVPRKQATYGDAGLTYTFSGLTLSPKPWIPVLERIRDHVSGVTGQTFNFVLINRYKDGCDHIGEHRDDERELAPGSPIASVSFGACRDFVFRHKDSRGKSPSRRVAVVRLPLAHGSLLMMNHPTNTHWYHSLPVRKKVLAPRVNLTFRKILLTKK
UniProt P13674, 18-534: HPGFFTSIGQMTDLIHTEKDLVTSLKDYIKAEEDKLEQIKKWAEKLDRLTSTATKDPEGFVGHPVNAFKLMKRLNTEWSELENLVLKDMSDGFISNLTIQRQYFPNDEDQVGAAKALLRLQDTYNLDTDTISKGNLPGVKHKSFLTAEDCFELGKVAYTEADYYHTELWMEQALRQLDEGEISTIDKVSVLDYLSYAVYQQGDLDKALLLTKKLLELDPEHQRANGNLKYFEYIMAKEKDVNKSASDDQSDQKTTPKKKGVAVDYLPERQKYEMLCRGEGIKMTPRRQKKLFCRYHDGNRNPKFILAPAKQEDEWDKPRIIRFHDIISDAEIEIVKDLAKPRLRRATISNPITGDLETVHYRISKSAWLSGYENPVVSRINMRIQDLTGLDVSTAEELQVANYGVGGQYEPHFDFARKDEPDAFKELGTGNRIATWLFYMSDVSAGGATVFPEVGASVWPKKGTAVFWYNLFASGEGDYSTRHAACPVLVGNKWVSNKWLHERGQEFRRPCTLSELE
UniProt Q9C0B1, whole entry: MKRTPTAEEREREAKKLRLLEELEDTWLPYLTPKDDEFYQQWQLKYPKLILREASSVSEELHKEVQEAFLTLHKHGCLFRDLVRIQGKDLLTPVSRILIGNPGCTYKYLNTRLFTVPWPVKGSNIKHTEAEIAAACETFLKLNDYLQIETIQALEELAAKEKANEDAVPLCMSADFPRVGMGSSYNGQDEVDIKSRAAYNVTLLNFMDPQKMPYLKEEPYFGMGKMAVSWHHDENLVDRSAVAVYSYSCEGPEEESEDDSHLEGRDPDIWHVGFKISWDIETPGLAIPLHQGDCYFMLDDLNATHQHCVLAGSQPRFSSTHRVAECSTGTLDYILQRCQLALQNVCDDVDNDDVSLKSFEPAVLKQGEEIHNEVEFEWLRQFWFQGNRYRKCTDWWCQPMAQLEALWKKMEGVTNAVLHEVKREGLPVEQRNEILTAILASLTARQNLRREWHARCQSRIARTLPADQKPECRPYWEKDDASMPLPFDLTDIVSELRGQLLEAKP

EGLN1 [1] = target: T1, EGLN1 (Homo sapiens, UniProt Q9GZT9); test: biochemical; conditions: read-out: Fold change versus DMSO control
Experimental: as §1, §2

LEPREL2 = target: T2, LEPREL2 (Homo sapiens, UniProt Q8IVL6); test: biochemical; conditions: read-out: Fold change versus DMSO control
T2 sequence (Q8IVL6 21-736): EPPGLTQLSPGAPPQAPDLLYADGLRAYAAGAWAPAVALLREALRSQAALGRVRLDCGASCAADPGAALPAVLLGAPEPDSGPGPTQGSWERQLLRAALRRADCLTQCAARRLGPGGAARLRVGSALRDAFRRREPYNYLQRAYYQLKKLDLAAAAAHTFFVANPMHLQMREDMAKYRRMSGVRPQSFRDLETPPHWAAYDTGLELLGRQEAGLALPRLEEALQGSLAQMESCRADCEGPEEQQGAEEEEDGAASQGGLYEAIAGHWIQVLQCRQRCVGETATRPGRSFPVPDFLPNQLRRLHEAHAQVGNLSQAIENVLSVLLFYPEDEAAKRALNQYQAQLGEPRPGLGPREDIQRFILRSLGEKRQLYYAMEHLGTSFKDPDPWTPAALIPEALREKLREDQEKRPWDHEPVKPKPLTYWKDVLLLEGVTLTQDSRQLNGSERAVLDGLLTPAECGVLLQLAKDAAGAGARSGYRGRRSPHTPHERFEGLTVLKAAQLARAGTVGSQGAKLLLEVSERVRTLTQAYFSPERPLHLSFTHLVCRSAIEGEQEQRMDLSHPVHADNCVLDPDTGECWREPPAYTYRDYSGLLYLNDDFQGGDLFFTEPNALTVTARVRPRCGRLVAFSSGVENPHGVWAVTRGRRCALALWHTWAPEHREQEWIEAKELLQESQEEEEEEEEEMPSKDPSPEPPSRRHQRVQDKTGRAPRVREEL
Experimental: as §1, §2

ALKBH5 = ALKBH5 (Homo sapiens, UniProt Q6P6C2); test: biochemical; conditions: read-out: Fold change versus DMSO control
Experimental: as §1, §2

ALKBH2 = ALKBH2 (Homo sapiens, UniProt Q6NS38); test: biochemical; conditions: read-out: Fold change versus DMSO control
Experimental: as §1, §2

P4HA1 = P4HA1 (Homo sapiens, UniProt P13674); test: biochemical; conditions: read-out: Fold change versus DMSO control
Experimental: as §1, §2

C17ORF101 = target: T3, C17ORF101 (Homo sapiens, UniProt Q6PK18); test: Bead competition binding assay, immobilized compound A, K-562, HL-60 and Jurkat nuclear lysates; parameters: capturing and identification of dioxygenases from nuclear protein extracts; endogenous in cells
T3 sequence (Q6PK18 1-331 isoform Q6PK18-2): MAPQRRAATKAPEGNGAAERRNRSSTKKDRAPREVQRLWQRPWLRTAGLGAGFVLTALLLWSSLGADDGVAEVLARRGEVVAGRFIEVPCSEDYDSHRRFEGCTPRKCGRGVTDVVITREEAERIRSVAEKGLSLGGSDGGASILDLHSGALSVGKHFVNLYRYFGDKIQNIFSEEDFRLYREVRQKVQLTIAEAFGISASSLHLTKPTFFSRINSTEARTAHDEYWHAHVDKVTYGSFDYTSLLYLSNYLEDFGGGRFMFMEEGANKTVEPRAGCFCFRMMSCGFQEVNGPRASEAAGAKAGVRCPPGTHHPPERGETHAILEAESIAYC
Description: The proteins bound to the immobilized compound were eluted with detergent-containing buffer and separated on a SDS-polyacryamide gel. […] Table 4: Compound treatment and TMT-labeling of cell samples
Jurkat cells (ATCC number TIB-152) were either obtained from an external supplier (CIL SA, Mons, Belgium) or grown in one litre Spinner flasks (Integra Biosciences, #182101) in suspension in RPMI 1640 medium (Invitrogen, #21875-034) supplemented with 10% Fetal Bovine Serum (Invitrogen, #10270-106) at a density between 0.2 x 10^6 and 1.0 x 10^6 cells/ml. Cells were harvested by centrifugation, washed once with 1 x PBS buffer (Invitrogen, #14190-094) and cell pellets were frozen in liquid nitrogen and subsequently stored at -80°C.
Source of HL-60 cells: HL-60 cell line (DSMZ, Braunschweig, Germany; DSMZ number ACC3). K562 cells were also purchased from DSMZ (Braunschweig, Germany).
Extracts of nuclei were prepared according to the Dignam protocol (Dignam et al., 1983. Nucleic Acids Res. 11 (5):1475-89).
The TMT reagents are a set of multiplexed, amine-specific, stable isotope reagents that can label peptides on amino groups in up to six different biological samples enabling simultaneous identification and quantitation of peptides. The TMT reagents were used according to instructions provided by the manufacturer. […]

EGLN1 [2] = target: T1, EGLN1; test: as above; parameters: endogenous in cells; conditions: 100 µM free compound A, K-562 nuclear lysate, read-out: Fold change versus DMSO control
Description: (§3) K562 cells were also purchased from DSMZ (Braunschweig, Germany).
(§4) Table 5: Peptide elution off the LC system
(§5) Seventeen different dioxygenases were identified.

FTO = FTO (Homo sapiens, UniProt Q9C0B1); test: as above; parameters: endogenous in cells; conditions: 100 µM free compound A, HL-60 nuclear lysate, read-out: Fold change versus DMSO control
Description: as §3, §4, §5

`O=C(O)CNC(=O)C1C(=O)OC2(CCNCC2)OC1=O` [compound A, 2-(2,4-dioxo-1,5-dioxa-9-azaspiro[5.5]undecane-3-carboxamido)acetic acid hydrochloride] gave a remaining activity at 200 µM (OGFOD1) of 22%, a remaining activity at 200 µM (EGLN1 [1]) of 20% and a remaining activity at 200 µM (LEPREL2) of 21%. It also gave a remaining activity at 200 µM (ALKBH5) of 48%, a remaining activity at 200 µM (ALKBH2) of 121% and a remaining activity at 200 µM (P4HA1) of 14%. For the same compound, the remaining binding at 100 µM (C17ORF101; read-out: Fold change versus DMSO control) was 42%, the remaining binding at 100 µM (C17ORF101; read-out: Fold change versus DMSO control, C17ORF101, 100 µM free compound A, Jurkat nuclear lysate) was 41% and the remaining binding at 100 µM (EGLN1 [2]) was 21%. The remaining binding at 100 µM (FTO) was 26%.
